Source: patent US8198405B2, “Stabilized alpha helical peptides and uses thereof” (Dana-Farber Cancer Institute, Inc., priority 2003, dated 2012)

Test system: leukemia cell lines tested (Jurkat, REH, MV4;11, SEMK2, RS4;11)
Test: MTT assay, panel statement
Details: same dose range as SAHB3BIDA

CCCC[C@H](NC(=O)[C@]1(C)CCCC=CCCC[C@](C)(NC(=O)[C@H](C)NC(=O)[C@H](CC(C)C)NC(=O)[C@H](Cc2c[nH]cn2)NC(=O)[C@H](CCCNC(=N)N)NC(=O)[C@H](C)NC(=O)[C@@H](NC(=O)[C@H](CC(N)=O)NC(=O)[C@H](CCCNC(=N)N)NC(=O)[C@@H](NC(=O)[C@@H](NC(=O)[C@H](CC(=O)O)NC(=O)[C@H](CCC(=O)O)NC(C)=O)[C@@H](C)CC)[C@@H](C)CC)[C@@H](C)CC)C(=O)N[C@@H](C(C)C)C(=O)N[C@@H](CCC(=O)O)C(=O)N[C@@H](CC(=O)O)C(=O)N1)C(=O)N[C@@H](CC(=O)O)C(=O)N[C@@H](CCCNC(=N)N)C(=O)N[C@@H](CO)C(=O)N[C@H](C(=O)N[C@@H](Cc1c[nH]c2ccccc12)C(N)=O)[C@@H](C)CC [SAHB3BID(G→E)A] (Ac-EDIIRNIARHLA[S5]VED[S5][Nle]DRSIW-NH2; staple 13-17; N-terminus assumed)
metabolic arrest, in words: essentially no effect

Where a SMILES comes first, the peptide text is derived from it. Bridges are numbered along the chain shown (N, C = ends). [ ]: non-standard residue; d: D form. S5 = C=CCCC[C@](C)(N)C(=O)O; Nle = CCCC[C@H](N)C(=O)O
